Here are results for one molecule from ChEMBL document CHEMBL1125788, “Synthesis and ocular antihypertensive activity of new imidazolidine derivatives containing a beta-blocking side chain” (J Med Chem, 1991).

The assay deals with T1, Alpha-1A adrenergic receptor (Rattus norvegicus, UniProt P43140).
T1 sequence (P43140 whole entry): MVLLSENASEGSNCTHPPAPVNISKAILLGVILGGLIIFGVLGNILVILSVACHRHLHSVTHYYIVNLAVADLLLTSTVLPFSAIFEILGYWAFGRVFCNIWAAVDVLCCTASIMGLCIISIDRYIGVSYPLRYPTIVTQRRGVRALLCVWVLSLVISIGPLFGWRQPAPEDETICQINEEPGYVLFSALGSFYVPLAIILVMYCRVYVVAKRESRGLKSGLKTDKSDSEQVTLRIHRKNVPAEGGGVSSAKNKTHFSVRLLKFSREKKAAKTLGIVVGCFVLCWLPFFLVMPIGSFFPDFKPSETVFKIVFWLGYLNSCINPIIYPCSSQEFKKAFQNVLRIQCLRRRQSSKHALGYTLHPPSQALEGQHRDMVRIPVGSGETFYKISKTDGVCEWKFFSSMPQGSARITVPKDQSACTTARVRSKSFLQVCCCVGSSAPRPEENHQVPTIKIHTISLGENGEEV
The assay is described as follows: The compound was tested for alpha-adrenergic activity against Alpha-1 adrenergic receptor from rat aorta. Conditions: read-out: pA2 (converted). The essentials: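 Isolated rat aorta strips at 2 g resting tension, stabilized about 1 h. Beta-receptors blocked with propranolol 10^-6 mol/L for 30 min. Cumulative norepinephrine curve (10^-10 to 10^-7 mol/L) with ascorbic acid 1.13 × 10^-6 mol/L present. ED50 by Ariens–Van Rossum. Intrinsic activity = maximum response relative to norepinephrine. Antagonism as pA2 (Schild) or, if non-competitive, pD'2.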

Consider `Clc1cccc(Cl)c1N=C1NCCN1` [CLONIDINE], for which the Kb was 257 nM.
